The species named for the assay is Homo sapiens. The assay is described as follows: Selectivity ratio of EC50 for full length FLAG-tagged XIAP (unknown origin) interaction with full length untagged caspase-9 expressed in HEK293 cells to EC50 for cIAP1 degradation in human MDA-MB-231 cells. The format is cell-based.

Each structure is given as a SMILES string.

On to `CCCC(F)(F)c1cnc2c(c1)N(C(=O)CN1C[C@@H](C)NC[C@@H]1CN1CCCC1=O)CC2(C)C`, for which the Ratio EC50 stood at 1.3.
The value for `C[C@@H]1CN(CC(=O)N2CC(C)(C)c3ncc(C(F)(F)c4ccccc4)cc32)[C@@H](CN2CCCC2=O)CN1` was 0.8; that for `C[C@@H]1CN(CC(=O)N2CC(C)(C)c3ncc(Cc4ccc(F)cc4F)cc32)[C@@H](CN2CCCC2=O)CN1` was 28.
